Measurements as given in patent US20060100199A1, “Novel condensed imidazole derivatives” (priority 2003, published 2006).

Protein sequences, listed by entry. Tags and fused reporters are not part of them. Lines headed by an entry give the natural chain unless they say otherwise; changes in a name come on top.
UniProt P22411: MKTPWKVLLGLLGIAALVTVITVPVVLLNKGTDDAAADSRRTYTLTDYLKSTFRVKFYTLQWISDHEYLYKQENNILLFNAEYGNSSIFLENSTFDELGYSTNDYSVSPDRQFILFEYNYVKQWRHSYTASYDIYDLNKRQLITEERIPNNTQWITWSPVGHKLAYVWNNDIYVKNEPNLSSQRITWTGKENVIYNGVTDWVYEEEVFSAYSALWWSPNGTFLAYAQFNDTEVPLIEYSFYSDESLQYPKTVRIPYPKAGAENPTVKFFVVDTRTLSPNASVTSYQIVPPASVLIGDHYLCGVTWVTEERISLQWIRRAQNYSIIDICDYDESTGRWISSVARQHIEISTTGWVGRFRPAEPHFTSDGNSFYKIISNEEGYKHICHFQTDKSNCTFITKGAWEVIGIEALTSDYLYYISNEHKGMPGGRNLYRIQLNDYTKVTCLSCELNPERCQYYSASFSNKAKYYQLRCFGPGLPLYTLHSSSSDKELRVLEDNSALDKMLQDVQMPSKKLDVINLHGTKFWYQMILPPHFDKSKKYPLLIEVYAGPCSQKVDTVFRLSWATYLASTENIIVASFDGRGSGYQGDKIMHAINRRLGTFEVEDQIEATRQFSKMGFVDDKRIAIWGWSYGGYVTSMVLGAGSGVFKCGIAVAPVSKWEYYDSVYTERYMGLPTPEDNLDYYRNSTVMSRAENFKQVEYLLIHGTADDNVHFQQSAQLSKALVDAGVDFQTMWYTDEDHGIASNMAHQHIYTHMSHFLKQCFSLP

Biological target: T1, Porcine kidney-derived DPP-IV (Sus scrofa, UniProt P22411)
T1 construct: Porcine kidney-derived DPP-IV was dissolved in a reaction buffer; from tissue; host or cells: porcine kidney
Assay: DPPIV-inhibiting activity assay
Format: biochemical
Conditions: Gly-Pro-p-nitroanilide 0.33 mM, reaction time 20 minutes, absorbance at 405 nm
Method: DPPIV-Inhibiting Activity Assay
Porcine kidney-derived DPP-IV was dissolved in a reaction buffer (50 mM Tris-HCl (pH 7.4)/0.1% BSA) at a concentration of 10 mg/ml. After 110 μl of this solution had been combined with 15 μl of an agent, the mixture was incubated at room temperature for 20 minutes. 25 μl of 2 mM Gly-Pro-p-nitroanilide was added (to a final concentration of 0.33 mM) to the solution to initiate the enzyme reaction. The reaction time was 20 minutes. 25 μl of 1N phosphoric acid solution was added to the reaction solution to quench the reaction.

| SMILES | IC50 |
| --- | --- |
| CC#CCn1c(N2CCNCC2)nc2nc(SC(C)c3cccs3)n(C)c(=O)c21 (stereo not drawn) [Example 146, 7-(2-Butynyl)-1-methyl-8-(piperazin-1-yl)-2-[1-(thiophen-2-yl)ethylsulfanyl]-1,7-dihydropurin-6-one trifluoroacetate] | 81.7 nM |
| CC#CCn1c(N2CCNCC2)nc2nc(Sc3nc(C)cs3)n(C)c(=O)c21 [Example 159, 7-(2-Butynyl)-1-methyl-2-(4-methylthiazol-2-ylsulfanyl)-8-(piperazin-1-yl)-1,7-dihydropurin-6-one trifluoroacetate] | 37.7 nM |
| CC#CCn1c(N2CCNCC2)nc2nc(C)n(C)c(=O)c21 [Example 22, 7-(2-Butynyl)-1,2-dimethyl-8-(piperazin-1-yl)-1,7-dihydropurin-6-one trifluoroacetate] | 170 nM |

Molecules with a lower IC50, results first:

| IC50 | SMILES |
| --- | --- |
| 9.69 nM | CC#CCn1c(N2CCNCC2)nc2nc(OC)n(Cc3ccccc3C#N)c(=O)c21 [Example 98, 2-[7-(2-Butynyl)-2-methoxy-6-oxo-8-(piperazin-1-yl)-6,7-dihydropurin-1-ylmethyl]benzonitrile hydrochloride] |
| 1.55 nM | CC#CCn1c(N2CCNCC2)nc2cnn(CC(=O)c3cccc(OC)c3)c(=O)c21 [Example 266, 3-(2-Butynyl)-5-[2-(3-methoxyphenyl)-2-oxoethyl]-2-(piperazin-1-yl)-3,5-dihydroimidazo[4,5-d]pyridazin-4-one trifluoroacetate] |
| 0.89 nM | CC#CCn1c(N2CCNCC2)nc2nc(Oc3cccnc3C(N)=O)n(Cc3ccccc3C#N)c(=O)c21 [Example 230, 3-[7-(2-Butynyl)-1-(2-cyanobenzyl)-6-oxo-8-(piperazin-1-yl)-6,7-dihydro-1H-purin-2-yloxy]pyridine-2-carboxylic amide trifluoroacetate] |

Counter-ions that a name gives are not always drawn.
